# Yeast mating assay B: variants of the scFv Ab-14

Values reported by Li et al. 2023, doi:10.1038/s41467-023-39022-2 (FLAb copy).

Binding partner: SARS-CoV-2 spike HR2 peptide, sequence PDVDLGDISGINAS.

Ab-14 is the parent antibody, in scFv form: VH, then the linker GGGGSGGGGSGGGGS, then VL. The heavy chain is unchanged in all variants.
VH: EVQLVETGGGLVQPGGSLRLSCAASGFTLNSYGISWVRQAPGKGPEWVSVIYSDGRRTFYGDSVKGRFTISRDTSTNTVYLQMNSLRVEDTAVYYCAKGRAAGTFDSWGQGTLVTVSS
VL: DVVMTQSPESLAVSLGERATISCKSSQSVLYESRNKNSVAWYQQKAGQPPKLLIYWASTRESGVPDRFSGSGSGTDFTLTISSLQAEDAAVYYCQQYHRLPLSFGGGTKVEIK

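Phage display of a naive human antibody library on the peptide gave the parent. Designed CDR sequences, proposed from the first random library and measured here. Group labels follow the data file (Ctrl: baseline library sampled from a position-specific scoring matrix, with some repeated check sequences; En: ensemble of fine-tuned language models; GP: Gaussian process model; HC: hill climbing; Gen: genetic algorithm; Gibbs: Gibbs sampling; a sequence that several methods proposed may carry one label only). AlphaSeq pools MATa yeast showing the antibodies with MATalpha yeast showing the peptide. Mating (16 h, 30 °C) was followed by selection of diploids and sequencing of their barcodes. Each replicate has its own calibration line, from reference interactions of the BCL2 family. Mating was done six times.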

The parent's light chain CDRs are KSSQSVLYESRNKNSVA, WASTRES, QQYHRLPLS; each variant's own CDRs replace them letter for letter. Numbers give log10(Kd / nM), so 0 is 1 nM and 3 is 1 µM. Smaller is tighter. The mean shown is taken over the replicates in which the pair was detected. Where no diploid with the target was found in any replicate, the entry reads "not detected": below detection, most likely a poor binder, though not proof of it. The range of this assay differs from that of the first round, and the authors advise against merging the two. In the paper, a design with two or fewer of six values counts as a poor binder. Empty control strains, which show no peptide, gave a signal in 4% of pairings with all light chain designs; the median was 2.64 and 95% of these signals were weaker than 1.59. No background was subtracted. Some sequences occur more than once in the pool; their replicates are pooled.

"log10 Kd (nM), mean",detected,CDR-L1,CDR-L2,CDR-L3,group
0.25,6 of 6,KVSQSVLGEQRNKNSVA,EASTRES,QQYHRLPLS,GP_HC
-0.07,6 of 6,KLSQSWLYLSRNHNAVA,EASQRLS,QDYHRLPLS,GP_Gibbs
1.68,5 of 6,KLYQSTLYESRNKNSVA,WASTRLS,QQYHRLPLS,GP_HC
1.02,6 of 6,KISQMVRVGTTHGNSIA,EEATRAK,QQYHRLPLF,En_Gen
0.70,6 of 6,KVAELLEMGENFQSSIA,SGAHKVH,QQYYRLPLG,En_Gibbs
0.28,6 of 6,KLASVTGTEKVRGNNVA,EMETRES,QQYNRLPLS,En_Gen
0.41,6 of 6,KVEQSMDYESRNVNSVA,NASTRLK,QQYHRLPLS,GP_Gibbs
0.42,6 of 6,QIYQAMHTLMQQKNNVA,DVTNRNN,QQYFRLPLS,En_Gen
2.50,1 of 6,QIAMEMYHGLNDNQNVA,DAMTYEK,QQYSRLPLF,En_Gibbs
0.68,6 of 6,KQLQSVLYESRNKNSVA,HASTRED,QQYGRLPLS,GP_HC
1.84,1 of 6,KSSQSVLYESRVKNSVA,WASTRES,QQYHRLPHS,Ctrl
not detected,0 of 6,KSSQSVRQLSRHKNSVA,WASTRPS,QQYHRLPLS,Ctrl
0.20,6 of 6,KYSQSVLYESLNKNSVA,NARTRES,QQYHRLPLS,Ctrl
0.22,6 of 6,KVSISYLLESRNKNSVA,EAHTRES,QQYHRLPLS,GP_HC
2.58,5 of 6,KLSWDCTTDLNRMSSIA,ESEVAVD,QQYAHLPLT,En_Gibbs
2.52,5 of 6,KSSQSVLYESRNDSSVA,WASTRES,QQYHRLPLS,Ctrl
-0.09,6 of 6,KLSQQVLYESRNKNSVA,NASTRES,QQYHRLPLS,GP_Gen
0.72,6 of 6,TLMMDPTEQRDSKHAIA,DNNQRDR,QQYHRLPLS,En_Gibbs
-0.23,6 of 6,KLEQSQEYESRNKNSVA,NASQRES,QQYHRLPLS,GP_Gen
-0.16,6 of 6,KFSQSVQYESRTKNSVA,NASTRES,QQYHRLPLS,GP_HC
0.35,6 of 6,KMLQSVLYESRDKNSVA,HASTRED,QQYHRLPLS,GP_HC
1.99,1 of 6,TVTQVTMVESYNKNSVA,QASTRLE,QDYHRLPLS,En_HC
0.23,6 of 6,HSSPSVNYESGNKNSVA,NASTRES,QQYHRLPLS,GP_HC
0.75,6 of 6,KSSQSVMGEQRNKNSVA,DISTRES,QQYHRLPLS,GP_HC
not detected,0 of 6,KSSQSTLYGSRNKNSVA,NADTRES,QQYHRLCLP,Ctrl
1.74,6 of 6,KSSQSVLYEFRNKRSVA,SASVRES,QQYTRLPIS,Ctrl
0.71,6 of 6,TGNVSLAQGVHEMNNVA,DGDQKLD,QQYYRLPLA,En_Gibbs
0.34,6 of 6,TLGDVTRMESNKKNSIA,DMSNRAI,QQYHRLPIS,En_HC
-0.33,6 of 6,KLYQSVLYESRNKNSVA,EASQRES,QQYHRLPLS,GP_Gen
1.29,6 of 6,SISMSMAFLSRNKNSVA,ENSTRES,QQYDRLPLV,En_HC
2.70,6 of 6,KSEQSVLYESSNKNSVA,WASTRES,QQYHRLPLN,Ctrl
0.61,6 of 6,IIDQIMYHGNKSANSIA,QASERLN,QQYYHLPLT,En_Gen
0.95,6 of 6,KISYMGEYFSTNHSAIA,QASTRLQ,QQYHRLPIS,En_HC
1.54,6 of 6,KWSQSVLYESRNKNSVA,WASTRES,QQYMRLPLA,Ctrl
not detected,0 of 6,KSSQDVLYESRAKNSVA,WAFTRES,QQYNRLPLS,Ctrl
0.96,6 of 6,QITEEQSMRTQGNWNIA,QAEQKVH,QQYNRLPLA,En_Gibbs
0.42,6 of 6,KVSQSMLGESRNFNSVA,SASTREN,QQYHRLPLS,GP_Gibbs
1.70,3 of 6,KIEQLLFPYGPSWHSIA,NANTLLA,QQYYMLPLM,En_Gibbs
not detected,0 of 6,KSSQSVEQESRNKNSVA,GASTRES,QQYHRLPNS,Ctrl
1.07,6 of 6,TIFQGRSYLDGDERNIA,DARTRND,QQYNRLPLV,En_Gibbs
0.77,6 of 6,KLSMITGHQLMSKDNVA,EMVTREN,QQYNRLPLS,En_Gen
not detected,0 of 6,KSSQSVLYESYDGNSVA,WASTRES,QLYHRLPLS,Ctrl
-0.02,6 of 6,KMSQSVLYESLNKNSVA,HASTRES,QQYHRLPLS,Ctrl
-0.26,6 of 6,KLHQEVGYESRNKNSVA,GGSQRES,QQYHRLPLS,GP_Gibbs
-0.21,6 of 6,KLDQGGLYESRNKNSVA,GASTRES,QQYHRLPLS,GP_HC
-0.47,6 of 6,KLSESVLYESRNKNNVA,DASTRES,QQYHRLPLS,GP_Gen
0.48,6 of 6,KSSMSVLFQSRNKNSVA,DASTRES,QQYHRLPLS,GP_HC
2.23,6 of 6,TISNSFMMENQFKNSVA,QATTREN,QCYDRLPLS,En_HC
2.06,6 of 6,RFDQTEQEGIQDKNSVA,QGSQSGT,QHYSRLPLS,En_Gibbs
0.02,6 of 6,KLSFSVLYESRNKNSVA,DASTRES,QQYHRLPLS,GP_Gen
-0.06,12 of 12,KSSQSDLYESRNKNSVA,DASTRES,QQYHRLPLS,Ctrl+GP_Gen
0.63,6 of 6,KSSQSVWMESRNANSVA,DASTRES,QQYHRLPLS,GP_HC
not detected,0 of 6,YVSGQIDEGWNQQEAIA,QVTYKED,QQYYKLPLS,En_Gibbs
not detected,0 of 6,KSSQPVLYESRNLNAVA,WASTRES,QQYHRLPLR,Ctrl
not detected,0 of 6,KSSQSVLMESRNKNSVA,WASRRES,QQYHRLPLS,Ctrl
0.63,5 of 6,MISNEQDYNYSATNSVA,DVTEKCN,QQYKRLPLT,En_Gibbs
-0.08,6 of 6,KSPQSVLYESRNKNSVA,HASTRED,QQYHQLPLS,GP_HC
1.19,6 of 6,KLSQSQLYESRNKNAVA,NASQRES,QQYHRLPLS,GP_Gen
-0.04,6 of 6,KWLQSVLYESRNFNSVA,NASTRED,QQYHRLPLS,GP_HC
not detected,0 of 6,KSSQSPLYESRNKNSVA,WASTRES,QQYHRIPLS,Ctrl
-0.17,6 of 6,KLSQSSLYESRNKNSVA,NASQRES,QQYHRLPLS,GP_Gen
0.10,6 of 6,KSGQGVLYESRNKNSVA,GGSTRES,QQYHRLPLS,GP_HC
2.04,6 of 6,MLSDLVKMGVRNTNNVA,DNSTRGS,QQYDRLPLS,En_HC
0.06,6 of 6,KFGQGVLYESRNKNSVA,GASLRES,QQYHRLPLS,GP_HC
0.80,6 of 6,KVSQEMLTEFRNKVAVA,HASTRES,QQIHRLPLS,Ctrl
0.43,6 of 6,KLAQSTLYESRNPNSVA,WASTRES,QQYHRLPLS,GP_HC
-0.48,6 of 6,ALSQSVLYESRNKNSVA,DASTRES,QQYHRLPLS,GP_Gen
-0.32,6 of 6,KLSQSVLYESRNKNSVA,EASYRES,QQYHRLPLS,GP_Gen
1.35,6 of 6,KSSQSVLYESENKNSVA,WASTRED,QQYHRLPLS,Ctrl
0.12,6 of 6,KLSQSFLYESMNKNSVA,EASQRIW,QQYHRLPLS,GP_Gibbs
-0.32,6 of 6,KASQSWIYESRNKNSVA,GASTRES,QQYHRLPLS,GP_HC
2.47,2 of 6,KISMMINMTFEQSNNVA,EMVTREK,QQYNRLPLS,En_Gen
1.10,6 of 6,TISQLYNMGQFAINSVA,QASERCN,QQYDRLPLI,En_Gen
1.31,2 of 6,IVSQLMLWGMKAKNSIA,EAVTRLN,QQYDRLPLF,En_Gen
0.10,6 of 6,KFSQSVLYESTTPNSVA,NASTRES,QQYHRLPLS,GP_HC
0.71,6 of 6,MFSQLMEYGSRYKNSIA,QASTRED,QQYHWLPLS,En_HC
-0.18,6 of 6,KLSQSMGYESRNKNSVA,NASQRES,QQYHRLPLS,GP_Gen

12 of these entries, quoted again:

CDR-L1,CDR-L2,CDR-L3,group,"log10 Kd (nM), mean",detected
KISQMVRVGTTHGNSIA,EEATRAK,QQYHRLPLF,En_Gen,1.02,6 of 6
KISMMINMTFEQSNNVA,EMVTREK,QQYNRLPLS,En_Gen,2.47,2 of 6
KSEQSVLYESSNKNSVA,WASTRES,QQYHRLPLN,Ctrl,2.70,6 of 6
TISNSFMMENQFKNSVA,QATTREN,QCYDRLPLS,En_HC,2.23,6 of 6
QITEEQSMRTQGNWNIA,QAEQKVH,QQYNRLPLA,En_Gibbs,0.96,6 of 6
KLSESVLYESRNKNNVA,DASTRES,QQYHRLPLS,GP_Gen,-0.47,6 of 6
KSSMSVLFQSRNKNSVA,DASTRES,QQYHRLPLS,GP_HC,0.48,6 of 6
KSSQSVEQESRNKNSVA,GASTRES,QQYHRLPNS,Ctrl,not detected,0 of 6
QIAMEMYHGLNDNQNVA,DAMTYEK,QQYSRLPLF,En_Gibbs,2.50,1 of 6
KSPQSVLYESRNKNSVA,HASTRED,QQYHQLPLS,GP_HC,-0.08,6 of 6
QIYQAMHTLMQQKNNVA,DVTNRNN,QQYFRLPLS,En_Gen,0.42,6 of 6
KWSQSVLYESRNKNSVA,WASTRES,QQYMRLPLA,Ctrl,1.54,6 of 6